{
  "source": "patent US8324238B2",
  "experiment": "Solubility of various salts in distilled water, converted into free base (Example 4B)",
  "details": "room temperature, converted into the corresponding solubilities of free base",
  "data": [
    {"substance": "Phthalate", "values": [
      {"measurement": "Solubility", "value": 480, "unit": "µg/mL"}
    ]}
  ]
}
